Experimental data taken from patent US20070149508A1, “Six membered heteroaromatic inhibitors targeting resistant kinase mutations” (TargeGen, Inc., priority 2005, published 2007).

Amino acid sequences for entries named in this document (tags omitted). A change or cut given only in a name is not applied to a line headed by its entry.
UniProt P00519, whole entry: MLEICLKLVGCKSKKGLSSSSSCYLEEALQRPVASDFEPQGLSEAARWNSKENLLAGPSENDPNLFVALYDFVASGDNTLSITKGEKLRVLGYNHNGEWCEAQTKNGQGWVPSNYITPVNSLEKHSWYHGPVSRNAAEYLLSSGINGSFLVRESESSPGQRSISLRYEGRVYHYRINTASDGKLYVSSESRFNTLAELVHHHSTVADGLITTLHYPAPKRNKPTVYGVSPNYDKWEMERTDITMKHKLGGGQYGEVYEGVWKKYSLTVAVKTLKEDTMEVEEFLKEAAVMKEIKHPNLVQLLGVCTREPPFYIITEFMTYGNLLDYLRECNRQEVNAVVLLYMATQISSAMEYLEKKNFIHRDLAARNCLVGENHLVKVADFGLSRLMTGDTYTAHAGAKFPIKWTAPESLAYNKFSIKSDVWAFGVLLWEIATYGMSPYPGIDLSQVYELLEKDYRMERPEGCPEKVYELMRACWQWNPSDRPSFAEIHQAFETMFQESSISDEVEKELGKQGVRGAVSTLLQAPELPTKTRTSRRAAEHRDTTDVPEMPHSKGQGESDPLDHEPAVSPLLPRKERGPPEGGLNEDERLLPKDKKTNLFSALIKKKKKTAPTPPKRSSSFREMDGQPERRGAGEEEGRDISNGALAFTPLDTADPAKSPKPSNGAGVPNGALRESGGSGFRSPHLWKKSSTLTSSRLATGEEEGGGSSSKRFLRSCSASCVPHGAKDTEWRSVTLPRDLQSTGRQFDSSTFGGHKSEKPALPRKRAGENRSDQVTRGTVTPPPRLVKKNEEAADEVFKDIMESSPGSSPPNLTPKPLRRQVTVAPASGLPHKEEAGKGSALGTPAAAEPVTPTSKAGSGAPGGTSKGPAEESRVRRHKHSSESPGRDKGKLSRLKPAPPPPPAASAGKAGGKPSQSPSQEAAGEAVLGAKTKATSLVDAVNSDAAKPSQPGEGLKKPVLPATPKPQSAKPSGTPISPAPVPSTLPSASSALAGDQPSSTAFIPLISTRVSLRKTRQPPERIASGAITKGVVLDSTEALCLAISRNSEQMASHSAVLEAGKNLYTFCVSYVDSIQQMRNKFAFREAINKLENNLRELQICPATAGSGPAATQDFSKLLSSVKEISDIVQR
UniProt P00519, whole entry T315I: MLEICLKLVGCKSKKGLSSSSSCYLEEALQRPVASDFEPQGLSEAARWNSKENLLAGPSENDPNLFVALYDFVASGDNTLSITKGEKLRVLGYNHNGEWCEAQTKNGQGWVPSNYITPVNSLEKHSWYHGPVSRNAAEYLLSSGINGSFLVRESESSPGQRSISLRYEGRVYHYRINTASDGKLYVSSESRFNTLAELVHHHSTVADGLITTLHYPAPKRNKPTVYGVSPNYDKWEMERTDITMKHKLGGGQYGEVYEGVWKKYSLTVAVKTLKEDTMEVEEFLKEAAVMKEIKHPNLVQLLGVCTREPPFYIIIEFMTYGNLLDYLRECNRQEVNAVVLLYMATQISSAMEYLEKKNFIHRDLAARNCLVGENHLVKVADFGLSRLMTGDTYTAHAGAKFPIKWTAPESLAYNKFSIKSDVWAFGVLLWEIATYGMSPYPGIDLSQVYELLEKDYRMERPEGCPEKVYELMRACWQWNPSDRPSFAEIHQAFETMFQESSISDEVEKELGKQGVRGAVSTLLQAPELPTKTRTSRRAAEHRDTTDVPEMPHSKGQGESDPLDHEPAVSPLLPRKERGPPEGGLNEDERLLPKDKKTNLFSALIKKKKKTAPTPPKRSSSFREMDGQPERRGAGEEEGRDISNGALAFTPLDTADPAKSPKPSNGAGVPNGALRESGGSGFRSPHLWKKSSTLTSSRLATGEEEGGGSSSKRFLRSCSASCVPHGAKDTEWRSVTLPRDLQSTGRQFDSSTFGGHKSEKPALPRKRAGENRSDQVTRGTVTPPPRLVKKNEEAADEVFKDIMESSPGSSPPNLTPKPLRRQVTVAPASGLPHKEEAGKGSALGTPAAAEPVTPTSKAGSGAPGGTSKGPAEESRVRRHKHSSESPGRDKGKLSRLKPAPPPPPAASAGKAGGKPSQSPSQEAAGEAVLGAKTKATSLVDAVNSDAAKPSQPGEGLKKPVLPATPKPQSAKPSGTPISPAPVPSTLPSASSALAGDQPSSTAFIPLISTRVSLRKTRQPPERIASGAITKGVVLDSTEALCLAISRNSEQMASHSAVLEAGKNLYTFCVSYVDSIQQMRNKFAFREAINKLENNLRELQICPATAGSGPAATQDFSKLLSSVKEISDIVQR

Assays:
Abl (T315I) = Abl (T315I) (Homo sapiens, UniProt P00519, T315I); test: Abl (T315I) Kinase Assay (KinaseGlo luminescent detection of residual ATP); settings: read-out: Abl (T315I) IC50; Abl (T315I) (Upstate, 17 ng/well), Abltide 100 uM, ATP 500 nM, 60 minutes at 37° C.
Abl kinase = Abl kinase (Homo sapiens, UniProt P00519)

Nc1noc2cc(/C=C/c3cnc(Nc4ccc(S(=O)(=O)C5CCNCC5)cc4)nc3)ccc12
IC50 (Abl (T315I)): 0.899 µM | IC50 (Abl kinase): 0.794 µM

Nc1noc2c(/C=C/c3cnc(Nc4ccc(S(=O)(=O)C5CCNCC5)cc4)nc3)cccc12
IC50 (Abl (T315I)): 0.201 µM | IC50 (Abl kinase): 0.0047 µM
